According to patent US20050233470A1, “Methods and compound mixtures for determining protein activity using nmr spectroscopy” (priority 2002, published 2005):

Settings: rabbit, in vivo

Substance: carbamazepine [CBZ]
- Expected increase of plasma levels of CBZ with diltiazem: ~30%
